Details: in n-butanol, 305.65 K

CC1=NN(c2ccc(C)cc2)C(=O)C1
solubility (mole fraction): 0.0479

Reference: BigSolDB 2.1
